pKi: −log10 of the molar value.

Chains of the proteins cited; added tags and fusions are not shown. Lines headed by an entry give the natural chain unless they say otherwise; changes in a name come on top.
UniProt P31391: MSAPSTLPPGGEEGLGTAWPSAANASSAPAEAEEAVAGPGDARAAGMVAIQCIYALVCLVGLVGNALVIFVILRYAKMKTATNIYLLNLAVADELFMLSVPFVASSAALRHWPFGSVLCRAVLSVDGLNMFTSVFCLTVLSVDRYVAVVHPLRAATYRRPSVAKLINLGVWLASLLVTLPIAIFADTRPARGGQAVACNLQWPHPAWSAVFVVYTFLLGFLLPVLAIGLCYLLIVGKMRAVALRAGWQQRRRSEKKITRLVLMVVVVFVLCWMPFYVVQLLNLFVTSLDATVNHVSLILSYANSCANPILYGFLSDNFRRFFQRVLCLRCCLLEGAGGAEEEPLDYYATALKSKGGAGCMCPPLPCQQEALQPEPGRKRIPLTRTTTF

This experiment concerns the target human SSTR4 (Homo sapiens (Human), UniProt P31391). The experiment is described as follows: Radioligand binding assay, CHO cell membranes expressing recombinant human SSTR4. The text has this:
Radioligand Binding Assays
Method Description for Binding Assays with Human Somatostatin Receptors by Use of CHO Cell Membranes Expressing Recombinant Human SSTR1 or Human SSTR2 or Human SSTR3 or Human SSTR4 or Human SSTR5
Receptor binding assays refer to a technique in which labeled receptor ligands are used to detect binding to a receptor. In competition experiments test compounds, which are not labeled, compete with the binding side of a labeled ligand. The displacement of the labeled ligand by the test compound leads to a decreased signal.
For the binding experiments 200 μL of membrane homogenate from one of the following protein amounts is used: hSSTR1 (40 μg/well); hSSTR2 (25 μg/well); hSSTR3 (1.5 μg/well); hSSTR4 (0.5 μg/well); hSSTR5 (25 μg/well). […] The incubation is terminated by filtration with ice cold NaCl 0.9% through polyethyleneimine treated (0.3%) GF/B glass fiber filters using a cell harvester. The protein-bound radioactivity is measured in a suitable reader. The non-specific binding is defined as radioactivity bound in the presence of 1 μM Somatostatin-14 during the incubation period.
The analysis of the concentration-binding curves is performed by computer-assisted nonlinear least square curve fitting method using the model of one receptor binding site.
Selectivity data was obtained with the aid of the above described radioligand binding assays.

By pKi is commonly meant the negative decadic logarithm of the Ki, by convention in mol/L. On to `Cc1cccc2c(C(C)(C)NC(=O)[C@H]3[C@@H]4CNC[C@@H]43)nn(C)c12` [Example 107], for which the negative-log Ki (pKi) is 8.47.

The values above are taken from patent publication US9789082B2, “Somatostatin receptor subtype 4 (SSTR4) agonists” (Centrexion Therapeutics Corporation, priority 2013, dated 2017).
